Membrane permeability of cyclic peptides

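Conditions beyond the assay type are not listed; see the original paper. Other peptides of the study may be missing here. Entries at the database's floor value (log10 P of -10) are not listed.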

PAMPA measures passive passage through an artificial lipid membrane. Values are log10 P with P in cm/s, so -5 is more permeable than -7.

SMILES | PAMPA (log10 cm/s)
CC(C)C[C@@H]1C(=O)N[C@H](CC(C)C)C(=O)N2CCC[C@@H]2C(=O)N(C)[C@H](CC(C)C)C(=O)N[C@@H](Cc2ccccc2)C(=O)N2CCC[C@@H]2C(=O)N[C@@H](C)C(=O)N1C | -5.31
CC(C)C[C@@H]1NC(=O)[C@H](C)N(C)C(=O)[C@@H]2CCCN2C(=O)[C@H](Cc2ccccc2)NC(=O)CN(Cc2ccccc2)C(=O)[C@@H]2CCCN2C(=O)C[C@H](Cc2ccccc2)NC1=O | -6.10
CC(C)C[C@@H]1C(=O)N2CCC[C@H]2C(=O)N(C)[C@H](CC(C)C)C(=O)N[C@@H](Cc2ccccc2)C(=O)N[C@@H](C)C(=O)N[C@H](CC(C)C)C(=O)N1C | -5.41
CC(C)C[C@@H]1NC(=O)[C@@H]2CCCN2C(=O)[C@H](CC(C)C)N(C)C(=O)[C@H](CC(C)C)NC(=O)[C@@H](C)N(C)C(=O)[C@@H]2CCCN2C(=O)[C@H](Cc2ccccc2)NC1=O | -6.54
CC(C)C[C@@H]1NC(=O)[C@@H](C)NC(=O)[C@H]2CCCN2C(=O)[C@H](Cc2ccccc2)NC(=O)CN(Cc2ccccc2)C(=O)[C@H]2CCCN2C(=O)CN(Cc2ccccc2)C1=O | -6.02
CCCN1CC(=O)N[C@@H](CC(C)C)C(=O)N(C)[C@H](CC(C)C)C(=O)N2CCC[C@@H]2C(=O)N(Cc2ccccc2)CC(=O)N[C@@H](Cc2ccccc2)C(=O)N2CCC[C@H]2C1=O | -5.93
CC(C)C[C@@H]1NC(=O)[C@H]2CCCN2C(=O)[C@H](CC(C)C)N(C)C(=O)[C@H](CC(C)C)N(C)C(=O)[C@@H](C)N(C)C(=O)[C@@H]2CCCN2C(=O)[C@H](Cc2ccccc2)NC1=O | -6.21
CC(C)C[C@@H]1NC(=O)[C@@H](C)N(C)C(=O)[C@H]2CCCN2C(=O)[C@H](Cc2ccccc2)NC(=O)[C@H](CC(C)C)N(C)C(=O)[C@H]2CCCN2C(=O)CN(Cc2ccccc2)C1=O | -6.25
CC(C)C[C@@H]1C(=O)N2CCC[C@@H]2C(=O)N(Cc2ccccc2)CC(=O)N[C@@H](Cc2ccccc2)C(=O)N2CCC[C@@H]2C(=O)N[C@H](C)C(=O)N(C)[C@@H](CC(C)C)C(=O)N1C | -5.79
CC(C)C[C@@H]1NC(=O)[C@@H](C)NC(=O)[C@H](Cc2ccccc2)NC(=O)CN(Cc2ccccc2)C(=O)[C@@H]2CCCN2C(=O)[C@H](CC(C)C)NC1=O | -6.27
CC(C)C[C@H]1C(=O)N(C)[C@@H](CC(C)C)C(=O)N2CCC[C@@H]2C(=O)N(Cc2ccccc2)CC(=O)N[C@@H](Cc2ccccc2)C(=O)N2CCC[C@H]2C(=O)N[C@H](C)C(=O)N1C | -5.57
CC(C)C[C@@H]1NC(=O)[C@@H](C)NC(=O)[C@H](Cc2ccccc2)NC(=O)[C@@H](CC(C)C)NC(=O)[C@H]2CCCN2C(=O)C[C@H](Cc2ccccc2)NC1=O | -5.06

Data: CycPeptMPDB; original report Townsend et al. 2020, doi:10.26434/chemrxiv.13335941.v1.